Experimental findings from EP4825857A1, “TRICYCLIC FUSED HETEROCYCLIC PDE3/4 DUAL INHIBITOR, AND PREPARATION AND USE THEREFOR” (dated 2026) are described below.

By UniProt entry, the sequences of proteins in these tests, tags left out. Chains listed by the source or under a name are the forms on record and can include a tag or linker. Residues count along the entry.
UniProt P10635, whole entry: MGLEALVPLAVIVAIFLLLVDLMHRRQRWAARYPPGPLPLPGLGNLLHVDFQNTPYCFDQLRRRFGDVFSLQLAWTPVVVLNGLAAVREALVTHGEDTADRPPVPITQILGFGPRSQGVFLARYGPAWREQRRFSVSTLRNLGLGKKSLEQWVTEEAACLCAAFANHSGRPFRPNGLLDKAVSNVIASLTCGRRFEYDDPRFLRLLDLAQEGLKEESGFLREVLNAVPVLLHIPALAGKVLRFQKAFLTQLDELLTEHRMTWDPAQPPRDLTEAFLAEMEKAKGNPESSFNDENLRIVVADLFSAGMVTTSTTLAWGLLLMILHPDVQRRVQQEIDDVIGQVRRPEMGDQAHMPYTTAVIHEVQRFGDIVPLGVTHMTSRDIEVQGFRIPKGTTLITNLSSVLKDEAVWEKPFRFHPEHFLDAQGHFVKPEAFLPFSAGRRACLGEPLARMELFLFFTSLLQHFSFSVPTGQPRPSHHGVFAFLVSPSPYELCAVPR
UniProt P11712, whole entry: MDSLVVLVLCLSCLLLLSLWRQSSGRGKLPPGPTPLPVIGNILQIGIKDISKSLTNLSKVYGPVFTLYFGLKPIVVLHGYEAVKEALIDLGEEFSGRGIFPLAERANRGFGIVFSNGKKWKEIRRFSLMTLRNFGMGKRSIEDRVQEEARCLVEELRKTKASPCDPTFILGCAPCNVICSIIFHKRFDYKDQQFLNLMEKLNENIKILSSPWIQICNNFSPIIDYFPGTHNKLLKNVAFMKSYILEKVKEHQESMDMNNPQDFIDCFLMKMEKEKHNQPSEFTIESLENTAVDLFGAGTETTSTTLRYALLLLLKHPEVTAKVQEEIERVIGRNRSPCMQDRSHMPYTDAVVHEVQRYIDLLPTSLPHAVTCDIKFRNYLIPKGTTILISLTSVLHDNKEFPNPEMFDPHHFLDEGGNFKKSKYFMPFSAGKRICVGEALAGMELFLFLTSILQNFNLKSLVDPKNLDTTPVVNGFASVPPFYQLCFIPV
UniProt P08684, whole entry: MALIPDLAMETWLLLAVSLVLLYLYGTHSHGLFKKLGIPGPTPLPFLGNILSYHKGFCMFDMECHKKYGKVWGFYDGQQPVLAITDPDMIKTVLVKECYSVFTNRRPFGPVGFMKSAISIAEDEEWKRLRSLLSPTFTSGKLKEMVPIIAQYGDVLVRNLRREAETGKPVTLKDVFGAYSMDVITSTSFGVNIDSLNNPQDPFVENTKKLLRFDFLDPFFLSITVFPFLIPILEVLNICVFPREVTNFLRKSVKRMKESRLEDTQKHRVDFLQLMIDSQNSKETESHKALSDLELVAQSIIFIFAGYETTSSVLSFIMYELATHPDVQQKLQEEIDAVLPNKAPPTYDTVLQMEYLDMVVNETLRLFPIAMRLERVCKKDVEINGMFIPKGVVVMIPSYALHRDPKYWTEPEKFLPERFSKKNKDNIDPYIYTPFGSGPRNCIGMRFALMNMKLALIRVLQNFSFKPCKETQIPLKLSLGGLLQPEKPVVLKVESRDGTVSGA
UniProt Q07343, 1-564 with tags or gaps: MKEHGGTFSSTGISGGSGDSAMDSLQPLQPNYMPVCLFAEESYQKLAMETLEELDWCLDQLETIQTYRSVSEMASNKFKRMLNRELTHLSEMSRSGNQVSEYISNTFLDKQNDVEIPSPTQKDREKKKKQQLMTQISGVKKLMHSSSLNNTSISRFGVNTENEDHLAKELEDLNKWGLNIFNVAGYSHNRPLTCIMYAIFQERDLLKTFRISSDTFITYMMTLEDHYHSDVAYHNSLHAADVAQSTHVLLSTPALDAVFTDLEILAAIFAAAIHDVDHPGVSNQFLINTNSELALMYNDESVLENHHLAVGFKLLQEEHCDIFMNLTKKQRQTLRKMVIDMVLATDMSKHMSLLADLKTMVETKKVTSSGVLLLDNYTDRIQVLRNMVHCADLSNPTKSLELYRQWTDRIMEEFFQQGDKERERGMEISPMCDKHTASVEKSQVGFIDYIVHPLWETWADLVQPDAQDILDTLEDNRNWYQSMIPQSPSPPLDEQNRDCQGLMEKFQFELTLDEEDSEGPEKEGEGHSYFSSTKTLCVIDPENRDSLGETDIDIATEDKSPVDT

Molecules are shown by their SMILES. Where two headings read alike, the source gives them in different places.

In one assay the target is CYP2D6 (Homo sapiens, UniProt P10635). Nature of the assay: CYP450 DDI, inhibition in liver microsomes. The note with it: 10 µM, 10 min, microsomal protein 0.5 mg/mL. How it is done:
(§1) Test Objective: To evaluate the inhibitory effects of RPL-554, Compound 1-2, Compound 10-2, Compound 67, and Compound 69 on CYP3A4, CYP2C9, and CYP2D6.
(§2) CYP enzymes: CYP3A4, CYP2C9, and CYP2D6.
(§3) Incubation conditions: test compound incubation time, 5 min for CYP3A4, and 10 min for CYP2C9 and CYP2D6; test compound final concentration, 10 µM; microsomal protein concentration, 0.5 mg/mL; NADPH concentration, 1.0 mM; temperature, 37.0 °C.
(§4) Working solutions of the substrates and inhibitors for CYP2C9, CYP2D6, and CYP3A4 were prepared separately.
(§5) The NADPH solution was prepared and prewarmed at 37 °C in a shaking water bath before use.
(§6) Liver microsomes were thawed and diluted with a buffer.
(§7) The corresponding solutions were added to each well of an incubation plate and preincubated for 15 minutes. Group: Test group = Test compound at different concentrations + liver microsomes in a solution. Negative control group (NC) = microsomes + a buffer. Positive control group (PC) = microsomes + selective inhibitor for the corresponding CYP isoform.
(§8) After preincubation, a reactions was initiated by adding the corresponding solution (CYP3A4: 5 min; CYP2C9 and CYP2D6: 10 min). Test group = substrate for each CYP isoform + coenzyme. Negative control group (NC) = substrate for each CYP isoform + coenzyme. Positive control group (PC) = substrate for each CYP isoform + coenzyme.
(§9) All samples were incubated at 37 °C. At the termination time point, each reaction was stopped by adding pre-chilled methanol and the time was recorded.
(§10) After thorough mixing, all samples were centrifuged at 4,000 rpm for 10 min. The supernatants were collected and analyzed by LC-MS/MS.

In another assay the target is CYP2C9 (Homo sapiens, UniProt P11712). Description: CYP450 DDI, inhibition in liver microsomes. The following applies: 10 µM, 10 min, microsomal protein 0.5 mg/mL. As to the method:
as §1, §2, §3, §4, §5, §6, §7, §8, §9, §10

The target in the next assay is CYP3A4 (Homo sapiens, UniProt P08684). Description: CYP450 DDI, inhibition in liver microsomes. The note with it: 10 µM, 5 min. How it is done:
as §1, §2, §3, §4, §5, §6, §7, §8, §9, §10

Assay [1] relates to isolated tracheal smooth muscle from guinea pig. Description: Relaxation of isolated trachea precontracted with acetylcholine chloride. The following applies: for EC50: read-out: EC50 (µmol/L), tracheal relaxation, ACh 1 × 10^-5 mol/L precontraction, guinea pig; for relief of ACh-induced contraction (in words): compared with the positive control. As to the method: Preparation of K-H Solution: The modified K-H solution (Krebs-Henseleit solution) contained the following components (mmol/L): NaCl 133, KCl 4.7, MgSO4 0.61, NaH2PO4 1.35, CaCl2 2.52, NaHCO3 16.3, and glucose 7.8. Except for NaHCO3, CaCl2, and glucose, which were freshly added before the experiment, the other components were prepared as concentrated stock solutions and stored at room temperature. On the day of the experiment, appropriate volumes of the stock solutions were taken and diluted with ultrapure water to required concentrations. The prepared K-H solution was adjusted to pH 7.2-7.4 with hydrochloric acid, and fully pre-saturated with mixed gas of 95% O2 and 5% CO2 before use.
Experimental Animals: Male guinea pigs each weighing 300-350 g, as well as the feed, were provided by Beijing Vital River Laboratory Animal Technology Co., Ltd. All animal experiments were performed in accordance with the National Institutes of Health Guide for the Care and Use of Laboratory Animals. The animals were housed at the New Drug Evaluation Center of Hebei Yiling Pharmaceutical Research Institute Co., Ltd. under a 12 h light/dark cycle, at 20-26 °C and 40-70% relative humidity, with five animals per cage. Corncob bedding for the experimental animals was provided by Jiangsu Xietong Pharmaceutical Bioengineering Co., Ltd. and used after autoclaving. The animals were fed an SPF-grade breeding diet and provided with bottled purified water ad libitum, and the water was changed once daily. After one week of adaption, the subsequent experimental procedures were performed.
During the experiment, the animals were weighed and their body weights were recorded. The animals were stunned by a single blow to the head with a wooden rod, after which the chest was rapidly opened. The intact trachea, extending from the thyroid cartilage to the tracheal bifurcation near the lung parenchyman, was excised and immediately immersed in the modified K-H solution aerated with mixed gas of 95% O2 and 5% CO2.
The connective tissue surrounding the trachea was removed. The trachea was cut transversely at intervals of two cartilage rings. Every four cartilage rings were ligated to form one tracheal chain segment. Two tungsten wire loops were passed in parallel through the lumen of each tracheal preparation, and the specimen was placed in a bath containing 10 mL of the modified K-H solution. One side of each tracheal preparation was fixed to the lower end of a stainless-steel support through a tungsten wire loop, and the other side was connected to a tension transducer through a tungsten wire loop and a silk thread. Tracheal tension signals were recorded by a data acquisition system through the tension transducer. The bath was maintained at 37°C and continuously supplied with oxygen. The initial load was adjusted to 2 g. The K-H solution was replaced every 15 min, and the specimen was equilibrated for 1 h, during which the solution was replaced four times. The experiment was initiated after the experimental conditions had stabilized. […] The tracheal relaxation function was expressed as the tracheal relaxation rate, which was calculated as the percentage of the relaxation amplitude induced by the compound based on the ACh-induced precontraction amplitude. The EC50 value of each compound was calculated.

The next assay has as its target PDE4B2 (Homo sapiens, UniProt Q07343). Description: PDE enzyme activity inhibition assay (fluorescence polarization, IMAP).
[2] abbreviates: read-out: PDE4B2, FP assay, Table 4.

As to `COc1cc2c(cc1OC)-c1cc(N(c3c(C)cc(C)cc3C)C(C)CNC(=O)c3cccc(N)n3)nc(=O)n1CC2` (centres unmarked), the “Relative Activity (% of NC) CYP2D6” value on CYP2D6 is 82.0 % of NC. Also, the “Relative Activity (% of NC) CYP2C9” value on CYP2C9 is 16.8 % of NC. Besides, at CYP3A4, the “Relative Activity (% of NC) CYP3A4 (substrate: midazolam)” value is reported as 17.2 % of NC and the “Relative Activity (% of NC) CYP3A4 (substrate: testosterone)” value is given as 31.7 % of NC.

As for `COc1cc2c(cc1OC)-c1cc(=Nc3c(C)cc(C)cc3C)n(CCNC(N)=O)c(=O)n1CC2`, in assay [1], the EC50 came out at 6.21 µmol/L. Also, on CYP2D6, the “Relative Activity (% of NC) CYP2D6” value was 94.1 % of NC. For the same molecule, the “Relative Activity (% of NC) CYP2C9” value on CYP2C9 is given as 66.5 % of NC. On CYP3A4, the “Relative Activity (% of NC) CYP3A4 (substrate: midazolam)” value is on record as 76.5 % of NC and the “Relative Activity (% of NC) CYP3A4 (substrate: testosterone)” value was 97.3 % of NC. Further, the IC50 on PDE4B2 (read-out: IC50, nM PDE4B2, FP assay II, Table 5) worked out at 107 nM. At PDE4B2 (setting [2]), the IC50 is 107 nM.

`COc1cc2c(cc1OC)-c1cc(N(c3c(C)cc(C)cc3C)C(C)CNC(N)=O)nc(=O)n1CC2` (single isomer, unassigned) [Compound 1-2]: in assay [1], the “relief of ACh-induced contraction (in words)” value (“relief” below) is “effectively relieved ACh-induced contraction” and the EC50 worked out at 0.626 µmol/L. On CYP2D6, the “Relative Activity (% of NC) CYP2D6” value was 89.8 % of NC. In addition, the “Relative Activity (% of NC) CYP2C9” value on CYP2C9 is reported as 67.3 % of NC. In addition, at CYP3A4, the “Relative Activity (% of NC) CYP3A4 (substrate: midazolam)” value is on record as 78.9 % of NC and the “Relative Activity (% of NC) CYP3A4 (substrate: testosterone)” value is recorded as 66.2 % of NC. At PDE4B2 (setting [2]), the IC50 turned out to be 23.8 nM.

With `COc1cc2c(cc1OC)-c1cc(N(c3c(C)cc(C)cc3C)C(C)CNC(=O)c3[nH]nnc3C)nc(=O)n1CC2` (single isomer, unassigned) [Compound 12-1], in assay [1], the “relief” value is “effectively relieved ACh-induced contraction” and the EC50 is 1.44 µmol/L. Besides, the IC50 on PDE4B2 (setting [2]) was 1.24 nM.

As for `COc1cc2c(cc1OC)-c1cc(N(c3c(C)cc(C)cc3C)C(C)CNC(=O)c3ncc[nH]3)nc(=O)n1CC2` (single isomer, unassigned) [Compound 10-2], in assay [1], the “relief” value is “effectively relieved ACh-induced contraction” and the EC50 is 0.167 µmol/L. Moreover, the “Relative Activity (% of NC) CYP2D6” value on CYP2D6 is 106 % of NC. On CYP2C9, the “Relative Activity (% of NC) CYP2C9” value is 69.9 % of NC. In addition, at CYP3A4, the “Relative Activity (% of NC) CYP3A4 (substrate: midazolam)” value is given as 95.2 % of NC and the “Relative Activity (% of NC) CYP3A4 (substrate: testosterone)” value is reported as 107 % of NC. Besides, the IC50 at PDE4B2 (setting [2]) came to 10.9 nM.

With `COc1cc2c(cc1OC)-c1cc(N(c3c(C)cc(C)cc3C)C(C)CNC(=O)c3cc(N)ccn3)nc(=O)n1CC2` (centres unmarked), the “Relative Activity (% of NC) CYP2D6” value at CYP2D6 is reported as 91.6 % of NC. The “Relative Activity (% of NC) CYP2C9” value at CYP2C9 is recorded as 26.0 % of NC. On CYP3A4, the “Relative Activity (% of NC) CYP3A4 (substrate: midazolam)” value is 26.5 % of NC and the “Relative Activity (% of NC) CYP3A4 (substrate: testosterone)” value is 28.4 % of NC.

As to `COc1cc2c(cc1OC)-c1cc(N(c3c(C)cc(C)cc3C)C(C)CNC(=O)c3ccccn3)nc(=O)n1CC2` (centres unmarked), in assay [1], the “relief” value is on record as “effectively relieved ACh-induced contraction” and the EC50 is 0.666 µmol/L. Moreover, at PDE4B2 (setting [2]), the IC50 was found to be 3 nM.
